Amino acid sequences for entries named in this document (tags omitted). A change or cut given only in a name is not applied to a line headed by its entry. Residues count along the entry.
UniProt Q96FJ0: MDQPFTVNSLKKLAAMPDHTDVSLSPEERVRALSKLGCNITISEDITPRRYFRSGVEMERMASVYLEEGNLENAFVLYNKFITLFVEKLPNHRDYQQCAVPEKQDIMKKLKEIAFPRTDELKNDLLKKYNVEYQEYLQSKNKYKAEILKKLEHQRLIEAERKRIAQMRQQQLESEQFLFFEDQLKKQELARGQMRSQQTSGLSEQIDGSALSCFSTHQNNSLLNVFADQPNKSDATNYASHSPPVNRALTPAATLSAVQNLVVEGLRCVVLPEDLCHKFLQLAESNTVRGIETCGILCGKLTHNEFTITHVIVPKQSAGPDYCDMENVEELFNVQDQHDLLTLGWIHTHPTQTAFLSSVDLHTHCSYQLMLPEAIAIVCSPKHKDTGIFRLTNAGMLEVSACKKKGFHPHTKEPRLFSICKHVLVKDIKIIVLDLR
UniProt P27338, whole entry: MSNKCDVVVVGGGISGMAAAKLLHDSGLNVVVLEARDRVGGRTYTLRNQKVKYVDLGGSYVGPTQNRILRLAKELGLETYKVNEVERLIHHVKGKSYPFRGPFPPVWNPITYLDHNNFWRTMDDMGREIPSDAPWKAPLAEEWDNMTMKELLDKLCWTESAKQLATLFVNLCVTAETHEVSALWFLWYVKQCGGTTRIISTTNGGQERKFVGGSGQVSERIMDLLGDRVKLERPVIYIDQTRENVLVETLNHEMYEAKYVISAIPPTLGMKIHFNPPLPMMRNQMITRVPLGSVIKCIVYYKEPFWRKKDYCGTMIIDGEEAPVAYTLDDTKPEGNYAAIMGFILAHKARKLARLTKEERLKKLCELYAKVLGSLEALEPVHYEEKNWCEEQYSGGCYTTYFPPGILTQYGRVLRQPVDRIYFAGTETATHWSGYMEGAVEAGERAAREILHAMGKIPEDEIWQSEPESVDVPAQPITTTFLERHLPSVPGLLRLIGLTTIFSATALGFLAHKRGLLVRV
UniProt P46663: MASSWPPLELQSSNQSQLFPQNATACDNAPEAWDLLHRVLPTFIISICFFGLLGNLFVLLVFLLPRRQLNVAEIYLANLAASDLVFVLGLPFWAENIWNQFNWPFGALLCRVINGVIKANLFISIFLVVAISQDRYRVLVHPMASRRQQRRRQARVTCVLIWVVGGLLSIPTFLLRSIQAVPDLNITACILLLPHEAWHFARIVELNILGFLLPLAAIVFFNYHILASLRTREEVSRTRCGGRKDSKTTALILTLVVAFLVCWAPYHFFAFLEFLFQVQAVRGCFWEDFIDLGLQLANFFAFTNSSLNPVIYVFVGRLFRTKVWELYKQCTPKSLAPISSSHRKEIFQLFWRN
UniProt Q9UM73, 19-1620: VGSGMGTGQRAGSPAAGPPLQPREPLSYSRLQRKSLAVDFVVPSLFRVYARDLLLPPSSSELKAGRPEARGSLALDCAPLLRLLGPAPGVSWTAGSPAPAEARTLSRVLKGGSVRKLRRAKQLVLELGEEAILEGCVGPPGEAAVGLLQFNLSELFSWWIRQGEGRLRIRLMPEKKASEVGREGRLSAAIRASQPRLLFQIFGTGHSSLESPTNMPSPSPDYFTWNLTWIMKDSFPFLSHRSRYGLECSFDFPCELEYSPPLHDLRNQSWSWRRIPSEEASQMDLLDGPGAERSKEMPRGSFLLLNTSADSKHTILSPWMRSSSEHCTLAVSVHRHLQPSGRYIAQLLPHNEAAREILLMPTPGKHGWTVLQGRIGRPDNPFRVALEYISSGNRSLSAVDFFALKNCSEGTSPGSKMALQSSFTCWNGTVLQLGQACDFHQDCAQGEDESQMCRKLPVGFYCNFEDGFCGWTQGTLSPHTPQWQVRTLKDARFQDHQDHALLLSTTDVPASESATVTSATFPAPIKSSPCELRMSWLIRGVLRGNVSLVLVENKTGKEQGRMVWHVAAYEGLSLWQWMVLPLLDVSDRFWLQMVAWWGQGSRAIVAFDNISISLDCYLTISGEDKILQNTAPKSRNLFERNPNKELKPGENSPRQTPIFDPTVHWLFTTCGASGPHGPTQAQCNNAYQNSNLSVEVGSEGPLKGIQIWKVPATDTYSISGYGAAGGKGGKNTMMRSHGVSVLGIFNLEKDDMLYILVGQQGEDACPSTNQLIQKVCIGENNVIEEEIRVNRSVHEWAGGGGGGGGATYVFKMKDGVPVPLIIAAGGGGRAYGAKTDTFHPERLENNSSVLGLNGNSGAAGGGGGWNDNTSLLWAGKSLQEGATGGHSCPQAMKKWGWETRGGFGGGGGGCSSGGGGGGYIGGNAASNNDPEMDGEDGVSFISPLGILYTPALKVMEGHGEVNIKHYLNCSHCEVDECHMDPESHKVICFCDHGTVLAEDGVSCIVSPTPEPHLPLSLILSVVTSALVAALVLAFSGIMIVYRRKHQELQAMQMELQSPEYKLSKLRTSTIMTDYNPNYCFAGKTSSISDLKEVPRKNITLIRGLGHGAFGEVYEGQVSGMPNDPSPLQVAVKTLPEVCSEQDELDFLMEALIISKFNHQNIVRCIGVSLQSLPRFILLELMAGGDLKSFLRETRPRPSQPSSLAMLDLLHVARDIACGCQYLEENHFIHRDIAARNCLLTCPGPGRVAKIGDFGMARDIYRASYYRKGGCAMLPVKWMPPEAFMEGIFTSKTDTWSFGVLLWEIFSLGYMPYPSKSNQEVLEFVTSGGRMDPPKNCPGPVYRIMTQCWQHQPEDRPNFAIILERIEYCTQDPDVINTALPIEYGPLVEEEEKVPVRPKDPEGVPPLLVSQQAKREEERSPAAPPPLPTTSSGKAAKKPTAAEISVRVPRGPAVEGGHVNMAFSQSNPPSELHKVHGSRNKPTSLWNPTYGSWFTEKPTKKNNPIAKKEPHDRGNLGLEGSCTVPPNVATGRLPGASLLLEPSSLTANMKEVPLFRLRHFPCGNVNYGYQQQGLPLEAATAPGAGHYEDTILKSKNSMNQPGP
UniProt Q8N5S9: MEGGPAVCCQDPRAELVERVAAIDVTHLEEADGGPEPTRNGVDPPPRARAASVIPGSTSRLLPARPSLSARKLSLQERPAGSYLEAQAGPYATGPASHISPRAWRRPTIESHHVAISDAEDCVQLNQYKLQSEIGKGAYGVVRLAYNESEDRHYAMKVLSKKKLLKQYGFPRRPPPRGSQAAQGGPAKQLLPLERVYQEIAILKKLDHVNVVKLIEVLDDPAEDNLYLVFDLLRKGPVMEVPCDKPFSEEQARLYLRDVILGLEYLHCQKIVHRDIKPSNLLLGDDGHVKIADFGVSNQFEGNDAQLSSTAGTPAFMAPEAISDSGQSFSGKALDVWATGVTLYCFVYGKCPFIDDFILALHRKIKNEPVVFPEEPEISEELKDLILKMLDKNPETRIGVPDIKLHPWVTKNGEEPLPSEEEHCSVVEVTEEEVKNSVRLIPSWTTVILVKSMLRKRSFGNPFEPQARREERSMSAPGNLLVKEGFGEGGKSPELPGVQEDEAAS
UniProt Q9NYV4, whole entry: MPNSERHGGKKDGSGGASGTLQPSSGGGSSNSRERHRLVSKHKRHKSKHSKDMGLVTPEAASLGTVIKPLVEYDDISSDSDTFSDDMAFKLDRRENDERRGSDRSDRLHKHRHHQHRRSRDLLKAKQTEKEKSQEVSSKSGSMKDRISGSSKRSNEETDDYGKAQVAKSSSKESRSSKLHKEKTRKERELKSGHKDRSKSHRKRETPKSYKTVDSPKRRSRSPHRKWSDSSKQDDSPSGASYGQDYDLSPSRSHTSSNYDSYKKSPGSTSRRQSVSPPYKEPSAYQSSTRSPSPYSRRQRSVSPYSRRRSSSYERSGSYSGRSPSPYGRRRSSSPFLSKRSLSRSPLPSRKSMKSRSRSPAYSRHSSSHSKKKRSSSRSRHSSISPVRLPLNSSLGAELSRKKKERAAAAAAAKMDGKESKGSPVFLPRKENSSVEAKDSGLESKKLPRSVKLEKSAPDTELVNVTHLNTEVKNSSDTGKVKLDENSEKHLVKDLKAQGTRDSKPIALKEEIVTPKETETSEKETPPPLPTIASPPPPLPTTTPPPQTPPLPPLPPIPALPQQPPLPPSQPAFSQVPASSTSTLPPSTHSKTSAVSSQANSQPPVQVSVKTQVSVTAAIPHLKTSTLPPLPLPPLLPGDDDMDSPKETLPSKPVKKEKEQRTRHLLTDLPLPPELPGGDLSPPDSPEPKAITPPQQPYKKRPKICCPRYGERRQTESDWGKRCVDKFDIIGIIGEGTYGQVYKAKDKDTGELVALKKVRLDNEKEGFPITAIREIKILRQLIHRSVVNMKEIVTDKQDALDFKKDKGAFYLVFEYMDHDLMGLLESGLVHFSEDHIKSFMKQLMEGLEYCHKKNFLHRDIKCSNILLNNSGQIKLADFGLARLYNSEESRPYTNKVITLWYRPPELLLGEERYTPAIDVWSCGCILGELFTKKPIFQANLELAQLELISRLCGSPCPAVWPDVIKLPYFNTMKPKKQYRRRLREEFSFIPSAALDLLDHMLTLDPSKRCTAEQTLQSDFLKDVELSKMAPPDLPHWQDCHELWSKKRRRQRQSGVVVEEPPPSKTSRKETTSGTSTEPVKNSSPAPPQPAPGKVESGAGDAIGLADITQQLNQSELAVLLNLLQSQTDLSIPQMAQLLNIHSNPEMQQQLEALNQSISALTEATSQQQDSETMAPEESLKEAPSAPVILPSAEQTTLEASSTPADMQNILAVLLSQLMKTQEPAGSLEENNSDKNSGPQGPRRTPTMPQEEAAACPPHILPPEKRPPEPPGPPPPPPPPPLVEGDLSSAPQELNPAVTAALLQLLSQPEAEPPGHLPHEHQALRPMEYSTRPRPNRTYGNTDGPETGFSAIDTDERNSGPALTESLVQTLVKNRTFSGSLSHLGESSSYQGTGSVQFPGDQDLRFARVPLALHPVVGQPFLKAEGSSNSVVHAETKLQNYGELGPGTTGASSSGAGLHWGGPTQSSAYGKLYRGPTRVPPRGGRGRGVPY
UniProt P41240: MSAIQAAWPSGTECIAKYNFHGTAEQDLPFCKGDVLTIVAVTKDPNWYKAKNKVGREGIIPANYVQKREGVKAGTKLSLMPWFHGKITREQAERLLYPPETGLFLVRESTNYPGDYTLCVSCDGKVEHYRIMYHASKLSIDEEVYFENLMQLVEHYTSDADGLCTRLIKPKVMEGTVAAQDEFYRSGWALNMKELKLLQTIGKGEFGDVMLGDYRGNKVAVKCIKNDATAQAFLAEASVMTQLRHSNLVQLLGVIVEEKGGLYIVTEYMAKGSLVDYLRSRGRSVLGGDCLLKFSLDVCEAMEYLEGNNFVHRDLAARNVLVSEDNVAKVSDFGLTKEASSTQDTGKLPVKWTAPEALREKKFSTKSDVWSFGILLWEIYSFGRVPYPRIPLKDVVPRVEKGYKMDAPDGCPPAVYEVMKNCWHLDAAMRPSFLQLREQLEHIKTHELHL
UniProt Q15418, whole entry: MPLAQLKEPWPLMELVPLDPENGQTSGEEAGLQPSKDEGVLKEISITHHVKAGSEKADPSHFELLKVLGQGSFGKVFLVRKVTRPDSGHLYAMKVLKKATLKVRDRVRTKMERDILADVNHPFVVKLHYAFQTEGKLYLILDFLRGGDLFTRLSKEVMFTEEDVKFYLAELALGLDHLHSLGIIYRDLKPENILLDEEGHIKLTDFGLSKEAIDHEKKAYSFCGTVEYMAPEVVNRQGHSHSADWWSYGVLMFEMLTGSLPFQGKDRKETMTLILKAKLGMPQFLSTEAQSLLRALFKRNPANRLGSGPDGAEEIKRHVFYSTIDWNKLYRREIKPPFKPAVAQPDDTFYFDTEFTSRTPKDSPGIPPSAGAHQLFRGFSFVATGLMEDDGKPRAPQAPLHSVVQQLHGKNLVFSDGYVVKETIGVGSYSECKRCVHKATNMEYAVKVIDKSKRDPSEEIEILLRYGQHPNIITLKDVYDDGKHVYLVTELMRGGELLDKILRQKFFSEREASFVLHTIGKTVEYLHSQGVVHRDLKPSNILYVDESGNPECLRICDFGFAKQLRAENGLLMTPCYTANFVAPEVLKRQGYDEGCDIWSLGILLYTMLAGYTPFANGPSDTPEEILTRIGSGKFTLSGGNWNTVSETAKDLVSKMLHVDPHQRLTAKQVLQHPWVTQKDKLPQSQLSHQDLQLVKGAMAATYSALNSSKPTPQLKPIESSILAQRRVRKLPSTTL
UniProt P36897, 34-503: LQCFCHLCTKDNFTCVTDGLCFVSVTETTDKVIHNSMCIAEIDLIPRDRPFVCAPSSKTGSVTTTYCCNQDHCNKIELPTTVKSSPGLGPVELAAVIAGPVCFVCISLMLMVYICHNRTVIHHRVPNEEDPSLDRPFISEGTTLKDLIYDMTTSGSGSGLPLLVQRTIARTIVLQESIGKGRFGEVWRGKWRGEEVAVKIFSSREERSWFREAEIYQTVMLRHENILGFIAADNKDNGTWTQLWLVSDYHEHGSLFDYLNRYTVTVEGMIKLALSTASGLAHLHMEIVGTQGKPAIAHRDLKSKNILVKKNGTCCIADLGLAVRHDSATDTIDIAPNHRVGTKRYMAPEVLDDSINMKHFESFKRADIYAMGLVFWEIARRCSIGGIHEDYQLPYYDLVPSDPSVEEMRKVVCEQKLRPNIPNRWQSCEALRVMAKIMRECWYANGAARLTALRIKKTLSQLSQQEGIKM

In article PMC10009755, “Discovery and Characterization of BAY-805, a Potent and Selective Inhibitor of Ubiquitin-Specific Protease USP21” (Journal of Medicinal Chemistry, 2023):

What was measured:
NF-κB activation = experiment: NF-κB reporter assay; format: cell-based
Glutamate, NMDA, Glycine = settings: 10 µM
USP8 = USP8 (Homo sapiens, UniProt P40818); experiment: biochemical; settings: read-out: Activity (% Control)
USP27x = USP27x (Homo sapiens, UniProt A6NNY8); experiment: biochemical; settings: read-out: Activity (% Control)
OTU1 = OTU1 (Homo sapiens, UniProt Q5VVQ6); experiment: biochemical; settings: read-out: Activity (% Control)
OTUD6A = OTUD6A (Homo sapiens, UniProt Q7L8S5); experiment: biochemical; settings: read-out: Activity (% Control)
AMSH-LP = AMSH-LP (Homo sapiens, UniProt Q96FJ0); experiment: biochemical; settings: read-out: Activity (% Control)
Monoamine Oxidase MAO-B = Monoamine Oxidase MAO-B (Homo sapiens, UniProt P27338); experiment: biochemical; settings: read-out: % Inh.
Adrenergic β1 = Adrenergic β1 (Homo sapiens, UniProt P08588); experiment: biochemical; settings: read-out: % Inh.
Bradykinin B1 = Bradykinin B1 (Homo sapiens, UniProt P46663); experiment: biochemical; settings: read-out: % Inh.
ALK(h) = ALK(h) (Homo sapiens, UniProt Q9UM73); experiment: biochemical
Arg(h) = Arg(h) (Homo sapiens, UniProt P42684); experiment: biochemical
Bmx(h) = Bmx(h) (Homo sapiens, UniProt P51813); experiment: biochemical
CaMKK1(h) = CaMKK1(h) (Homo sapiens, UniProt Q8N5S9); experiment: biochemical
CDK12/cyclinK(h) = CDK12/cyclinK(h) (Homo sapiens, UniProt Q9NYV4); experiment: biochemical
CDKL1(h) = CDKL1(h) (Homo sapiens, UniProt Q00532); experiment: biochemical
ChaK1(h) = ChaK1(h) (Homo sapiens, UniProt Q96QT4); experiment: biochemical
CK1alpha(h) = CK1alpha(h) (Homo sapiens, UniProt P48729); experiment: biochemical
CK2(h) = CK2(h) (Homo sapiens, UniProt P68400); experiment: biochemical
cKit(h) = cKit(h) (Homo sapiens, UniProt P10721); experiment: biochemical
CSK(h) = CSK(h) (Homo sapiens, UniProt P41240); experiment: biochemical
EphB3(h) = EphB3(h) (Homo sapiens, UniProt P54753); experiment: biochemical
GCN2(h) = GCN2(h) (Homo sapiens, UniProt Q9P2K8); experiment: biochemical
JAK1(h) = JAK1(h) (Homo sapiens, UniProt P23458); experiment: biochemical
Lck(h) activated = Lck(h) activated (Homo sapiens, UniProt P06239); experiment: biochemical
MAPK1(h) = MAPK1(h) (Homo sapiens, UniProt P27361); experiment: biochemical
MAPK2(h) = MAPK2(h) (Homo sapiens, UniProt P28482); experiment: biochemical
MARK3(h) = MARK3(h) (Homo sapiens, UniProt P27448); experiment: biochemical
MST1(h) = MST1(h) (Homo sapiens, UniProt Q13043); experiment: biochemical
NEK4(h) = NEK4(h) (Homo sapiens, UniProt P51957); experiment: biochemical
PKBalpha(h) = PKBalpha(h) (Homo sapiens, UniProt P31749); experiment: biochemical
PKG1alpha(h) = PKG1alpha(h) (Homo sapiens, UniProt Q13976); experiment: biochemical
RIPK1(h) = RIPK1(h) (Homo sapiens, UniProt Q13546); experiment: biochemical
Rsk1(h) = Rsk1(h) (Homo sapiens, UniProt Q15418); experiment: biochemical
SIK2(h) = SIK2(h) (Homo sapiens, UniProt Q9H0K1); experiment: biochemical
SRPK2(h) = SRPK2(h) (Homo sapiens, UniProt P78362); experiment: biochemical
STK32A(h) = STK32A(h) (Homo sapiens, UniProt Q8WU08); experiment: biochemical
TAF1L(h) = TAF1L(h) (Homo sapiens, UniProt Q8IZX4); experiment: biochemical
TGFBR1(h) = TGFBR1(h) (Homo sapiens, UniProt P36897); experiment: biochemical
TLK2(h) = TLK2(h) (Homo sapiens, UniProt Q86UE8); experiment: biochemical
TSSK1(h) = TSSK1(h) (Homo sapiens, UniProt Q9BXA7); experiment: biochemical
TTBK2(h) = TTBK2(h) (Homo sapiens, UniProt Q6IQ55); experiment: biochemical

**Q.** With `CC(C)C[C@@H](NC(=O)C1(C(F)(F)F)CCCCC1)C(=O)Nc1nnc(Cc2ccc(C#N)cc2)s1` [Compound 21, N-[(1R)-1-[[5-[(4-Cyanophenyl)methyl]-1,3,4-thiadiazol-2-yl]carbamoyl]-3-methyl-butyl]-1-(trifluoromethyl)cyclohexanecarboxamide] as the compound, how does the EC50 (NF-κB activation; Homo sapiens, HEK-293T, read-out: NF-κB activation EC50) read?
**A.** Its EC50 is 17 nM.

**Q.** And the “% Inh.” value (Glutamate, NMDA, Glycine)?
**A.** Its value is 6%.

**Q.** And the remaining activity at 1 µM (USP8)?
**A.** Its remaining activity at 1 µM is 94%.

**Q.** What about the remaining activity at 10 µM (USP8) of the same compound?
**A.** Its remaining activity at 10 µM is 96%.

**Q.** And the remaining activity at 1 µM (USP27x)?
**A.** Its remaining activity at 1 µM is 105%.

**Q.** What about the remaining activity at 10 µM (USP27x) of the same compound?
**A.** Its remaining activity at 10 µM is 108%.

**Q.** What about the remaining activity at 1 µM (OTU1) of the same compound?
**A.** Its remaining activity at 1 µM is 104%.

**Q.** What about the remaining activity at 10 µM (OTU1) of the same compound?
**A.** Its remaining activity at 10 µM is 104%.

**Q.** And the remaining activity at 1 µM (OTUD6A)?
**A.** The remaining activity at 1 µM was 103%.

**Q.** What about the remaining activity at 10 µM (OTUD6A) of the same compound?
**A.** The remaining activity at 10 µM was 99%.

**Q.** And the remaining activity at 1 µM (AMSH-LP)?
**A.** Its remaining activity at 1 µM is 96%.

**Q.** And the remaining activity at 10 µM (AMSH-LP)?
**A.** Its remaining activity at 10 µM is 101%.

**Q.** And the inhibition at 10 µM (Monoamine Oxidase MAO-B)?
**A.** Its inhibition at 10 µM is 7%.

**Q.** And the inhibition at 10 µM (Adrenergic β1)?
**A.** Its inhibition at 10 µM is 3%.

**Q.** And the inhibition at 10 µM (Bradykinin B1)?
**A.** The inhibition at 10 µM was 6%.

**Q.** And the inhibition at 10 µM (ALK(h))?
**A.** The inhibition at 10 µM was 9.29%.

**Q.** And the inhibition at 10 µM (Arg(h))?
**A.** The inhibition at 10 µM was -7.9%.

**Q.** And the inhibition at 10 µM (Bmx(h))?
**A.** The inhibition at 10 µM was 22.9%.

**Q.** What about the inhibition at 10 µM (CaMKK1(h)) of the same compound?
**A.** The inhibition at 10 µM was -4.16%.

**Q.** What about the inhibition at 10 µM (CDK12/cyclinK(h)) of the same compound?
**A.** The inhibition at 10 µM was -5.64%.

**Q.** What about the inhibition at 10 µM (CDKL1(h)) of the same compound?
**A.** Its inhibition at 10 µM is 10.1%.

**Q.** What about the inhibition at 10 µM (ChaK1(h)) of the same compound?
**A.** The inhibition at 10 µM was -12.9%.

**Q.** And the inhibition at 10 µM (CK1alpha(h))?
**A.** The inhibition at 10 µM was 7.91%.

**Q.** And the inhibition at 10 µM (CK2(h))?
**A.** Its inhibition at 10 µM is 1.69%.

**Q.** What about the inhibition at 10 µM (cKit(h)) of the same compound?
**A.** Its inhibition at 10 µM is -0.55%.

**Q.** And the inhibition at 10 µM (CSK(h))?
**A.** The inhibition at 10 µM was -13.9%.

**Q.** And the inhibition at 10 µM (EphB3(h))?
**A.** Its inhibition at 10 µM is -3.42%.

**Q.** What about the inhibition at 10 µM (GCN2(h)) of the same compound?
**A.** Its inhibition at 10 µM is 1.83%.

**Q.** What about the inhibition at 10 µM (JAK1(h)) of the same compound?
**A.** Its inhibition at 10 µM is 5.61%.

**Q.** What about the inhibition at 10 µM (Lck(h) activated) of the same compound?
**A.** The inhibition at 10 µM was 0.11%.

**Q.** And the inhibition at 10 µM (MAPK1(h))?
**A.** Its inhibition at 10 µM is 6%.

**Q.** And the inhibition at 10 µM (MAPK2(h))?
**A.** The inhibition at 10 µM was 7.68%.

**Q.** And the inhibition at 10 µM (MARK3(h))?
**A.** The inhibition at 10 µM was 0.57%.

**Q.** And the inhibition at 10 µM (MST1(h))?
**A.** The inhibition at 10 µM was -6.64%.

**Q.** What about the inhibition at 10 µM (NEK4(h)) of the same compound?
**A.** The inhibition at 10 µM was 3.5%.

**Q.** And the inhibition at 10 µM (PKBalpha(h))?
**A.** Its inhibition at 10 µM is 10.7%.

**Q.** And the inhibition at 10 µM (PKG1alpha(h))?
**A.** Its inhibition at 10 µM is 14.7%.

**Q.** What about the inhibition at 10 µM (RIPK1(h)) of the same compound?
**A.** The inhibition at 10 µM was -2.93%.

**Q.** What about the inhibition at 10 µM (Rsk1(h)) of the same compound?
**A.** The inhibition at 10 µM was -5.69%.

**Q.** And the inhibition at 10 µM (SIK2(h))?
**A.** Its inhibition at 10 µM is 7.78%.

**Q.** And the inhibition at 10 µM (SRPK2(h))?
**A.** The inhibition at 10 µM was 9.6%.

**Q.** And the inhibition at 10 µM (STK32A(h))?
**A.** Its inhibition at 10 µM is 1.52%.

**Q.** What about the inhibition at 10 µM (TAF1L(h)) of the same compound?
**A.** The inhibition at 10 µM was 8.62%.

**Q.** And the inhibition at 10 µM (TGFBR1(h))?
**A.** The inhibition at 10 µM was 7.47%.

**Q.** What about the inhibition at 10 µM (TLK2(h)) of the same compound?
**A.** The inhibition at 10 µM was 8.77%.

**Q.** And the inhibition at 10 µM (TSSK1(h))?
**A.** The inhibition at 10 µM was 4.75%.

**Q.** What about the inhibition at 10 µM (TTBK2(h)) of the same compound?
**A.** Its inhibition at 10 µM is -10.1%.

**Q.** What does the source list for `CC(C)C[C@H](NC(=O)C1(C(F)(F)F)CCCCC1)C(=O)Nc1nnc(Cc2ccc(C#N)cc2)s1` [Compound 22, CC(C)C[C@H](NC(=O)C1(CCCCC1)C(F)(F)F)C(=O)Nc2nnc(Cc3ccc(cc3)C#N)s2]?
**A.** NF-κB activation (in words) (NF-κB activation): mildly increased cellular NF-κB levels at 10 μM; also recorded: did not show substantial cellular activity; % Inh. (Glutamate, NMDA, Glycine): 19%; remaining activity at 1 µM (USP8): 93%; remaining activity at 10 µM (USP8): 109%; remaining activity at 1 µM (USP27x): 103%; remaining activity at 10 µM (USP27x): 96%; remaining activity at 1 µM (OTU1): 103%; remaining activity at 10 µM (OTU1): 113%; remaining activity at 1 µM (OTUD6A): 99%; remaining activity at 10 µM (OTUD6A): 105%; remaining activity at 1 µM (AMSH-LP): 105%; remaining activity at 10 µM (AMSH-LP): 88%; inhibition at 10 µM (Monoamine Oxidase MAO-B): 5%; inhibition at 10 µM (Adrenergic β1): 4%; inhibition at 10 µM (Bradykinin B1): 23%; inhibition at 10 µM (ALK(h)): 11.5%; inhibition at 10 µM (Arg(h)): -13.7%; inhibition at 10 µM (Bmx(h)): 16.1%; inhibition at 10 µM (CaMKK1(h)): -7.24%; inhibition at 10 µM (CDK12/cyclinK(h)): 9.09%; inhibition at 10 µM (CDKL1(h)): 13.4%; inhibition at 10 µM (ChaK1(h)): -14.6%; inhibition at 10 µM (CK1alpha(h)): 5.47%; inhibition at 10 µM (CK2(h)): -2.03%; inhibition at 10 µM (cKit(h)): -4.4%; inhibition at 10 µM (CSK(h)): -17.2%; inhibition at 10 µM (EphB3(h)): -2.88%; inhibition at 10 µM (GCN2(h)): 4.09%; inhibition at 10 µM (JAK1(h)): 1.11%; inhibition at 10 µM (Lck(h) activated): 3.42%; inhibition at 10 µM (MAPK1(h)): -0.7%; inhibition at 10 µM (MAPK2(h)): 4.81%; inhibition at 10 µM (MARK3(h)): 2.14%; inhibition at 10 µM (MST1(h)): -4.69%; inhibition at 10 µM (NEK4(h)): 0.22%; inhibition at 10 µM (PKBalpha(h)): 4.46%; inhibition at 10 µM (PKG1alpha(h)): 7.5%; inhibition at 10 µM (RIPK1(h)): 0.89%; inhibition at 10 µM (Rsk1(h)): -1.98%; inhibition at 10 µM (SIK2(h)): 1.8%; inhibition at 10 µM (SRPK2(h)): 0.9%; inhibition at 10 µM (STK32A(h)): 0.29%; inhibition at 10 µM (TAF1L(h)): -1.18%; inhibition at 10 µM (TGFBR1(h)): -2.34%; inhibition at 10 µM (TLK2(h)): -2.92%; inhibition at 10 µM (TSSK1(h)): 5.25%; inhibition at 10 µM (TTBK2(h)): -1.36%

Entries after “also recorded” stand apart in the source; their conditions may differ.
